Results reported in patent US20250354930A1, “IONIC LIQUID ENCAPSULATION OF NIR DYES FOR THE IMPROVEMENT OF BLOODSTAIN DETECTION” (University of Mississippi, priority 2024, published 2025).

By UniProt entry, the sequences of proteins in these tests, tags left out. Where a name states a change or a piece, a line headed by the entry shows the natural chain unless it says otherwise.
UniProt P02768: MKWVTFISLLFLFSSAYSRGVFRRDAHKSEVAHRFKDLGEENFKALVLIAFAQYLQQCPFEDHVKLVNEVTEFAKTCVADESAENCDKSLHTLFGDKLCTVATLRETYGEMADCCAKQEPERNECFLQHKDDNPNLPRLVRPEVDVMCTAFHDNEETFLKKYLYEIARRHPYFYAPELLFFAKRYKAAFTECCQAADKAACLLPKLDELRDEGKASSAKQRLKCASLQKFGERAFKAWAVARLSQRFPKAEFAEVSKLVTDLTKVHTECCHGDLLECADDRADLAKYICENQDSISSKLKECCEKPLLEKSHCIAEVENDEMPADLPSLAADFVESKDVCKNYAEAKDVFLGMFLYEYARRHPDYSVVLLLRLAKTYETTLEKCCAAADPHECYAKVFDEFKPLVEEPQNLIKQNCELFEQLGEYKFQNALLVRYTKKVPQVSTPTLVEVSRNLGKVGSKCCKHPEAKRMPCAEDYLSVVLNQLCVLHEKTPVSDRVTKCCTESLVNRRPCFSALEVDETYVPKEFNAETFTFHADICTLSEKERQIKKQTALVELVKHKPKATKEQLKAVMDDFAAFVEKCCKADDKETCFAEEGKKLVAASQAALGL

Experiments:
bacterial plasmid DNA = assay: Circular dichroism spectroscopy of DNA; conditions: 12 nM DNA, 2.5% IL (160 mM); peaks at 245 and 265 nm
[1] = Fluorescence measurements of dye/IL systems with and without human whole blood; conditions: for effect on the dye's fluorescence in the absence of blood: IL scanned 0-240 mM
[2] = target: tryptophan residue of HSA (Homo sapiens, UniProt P02768); assay: Fluorescence measurements of albumin tryptophan residue
[3] = Conductivity measurements of 160 mM solutions; type: physicochemical
Experimental: Conductivity was measured using a Thermo Scientific Orion Star […] conductivity meter using a DuraProbe 4-electrode conductivity cell. […] The clean probe was introduced into each solution to record the conductivity. The conductivity was measured in triplicate for each of the solutions.

HSA = HSA (Homo sapiens, UniProt P02768); assay: Dynamic light scattering size and zeta potential of HSA systems
[4] = 0.1 mg/mL HSA in 10 μM SO3SQ with 160 mM CG 1:1 added

For Choline Glycolate 1:1, the “effect on the structure of plasmid DNA” value (bacterial plasmid DNA) was “limited structural changes to the DNA”, the “effect on the dye's fluorescence in the absence of blood” value ([1]; 10 μM dye) was “suppressing the emission” and the “effect on the dye's fluorescence in the presence of blood” value ([1]; 10 μM dye, IL scanned 0-240 mM or additive at 160 mM) was “noticeable increase”. For the same substance, the “effect on the dye's fluorescence in the absence of blood” value ([1]; 10 μM dye, listed as CG (1:1)) was “decrease”, the “increase of the dye's fluorescence in the presence of blood relative to the sample without any IL” value ([1]; 160 mM IL, 10 μM SO3SQ) was 5 fold and the “blueshift of tryptophan wavelength maximum” value ([2]; CG (1:1) added to HSA in water, from 333 nm to 329 nm) was 4 nm. The “decrease in the intensity of the fluorescence of the tryptophan residue” value ([2]; condition 1: CG (1:1) added into 0.1 mg/mL HSA in water, no dye) was “about 10%”, the “decrease in the intensity of the fluorescence of the tryptophan residues” value ([2]; condition 2: CG (1:1) added to 0.1 mg/mL HSA already containing 10 μM SO3SQ) was 70% and the average conductivity ([3]; 160 mM solution in SO3SQ) was 187.0±0.5 μS/cm. The average conductivity ([3]; 160 mM solution in water) was 189.4±0.7 μS/cm, the “average charge (zeta potential)” value (HSA; [4]) was −0.30±0.60 mV and the average size (HSA; [4]) was 170±40 nm. For the same substance, the “average size of the complex” value (HSA; 0.1 mg/mL HSA in water with 160 mM CG 1:1 added (HSA in water alone 50±30 nm)) was 430±150 nm, the “average charge (zeta potential)” value (HSA; 0.1 mg/mL HSA in water with 160 mM CG 1:1 added (HSA in water alone −9.8±0.7 mV)) was −0.17±0.17 mV and the “size peak of CG 1:1 own complexes in solution” value (HSA; HSA in water with 160 mM CG 1:1) was −600 nm.
